Target: T1, PDE9A isoform b (Homo sapiens, UniProt O76083)
T1 construct: they are full-length with N-terminal GST tag; GST (N); purchased BPS Biosciences 60090; host or cells: baculovirus infected Sf9 cells
Assay: PDE enzyme activity assay (HTRF cGMP), PDE9A
Format: biochemical
Settings: recombinant enzyme; read-out: PDE9A inhibition (IC50)

By UniProt entry, the sequences of proteins in these tests, tags left out. Residues count along the entry.
UniProt O76083, 1-533 isoform O76083-2: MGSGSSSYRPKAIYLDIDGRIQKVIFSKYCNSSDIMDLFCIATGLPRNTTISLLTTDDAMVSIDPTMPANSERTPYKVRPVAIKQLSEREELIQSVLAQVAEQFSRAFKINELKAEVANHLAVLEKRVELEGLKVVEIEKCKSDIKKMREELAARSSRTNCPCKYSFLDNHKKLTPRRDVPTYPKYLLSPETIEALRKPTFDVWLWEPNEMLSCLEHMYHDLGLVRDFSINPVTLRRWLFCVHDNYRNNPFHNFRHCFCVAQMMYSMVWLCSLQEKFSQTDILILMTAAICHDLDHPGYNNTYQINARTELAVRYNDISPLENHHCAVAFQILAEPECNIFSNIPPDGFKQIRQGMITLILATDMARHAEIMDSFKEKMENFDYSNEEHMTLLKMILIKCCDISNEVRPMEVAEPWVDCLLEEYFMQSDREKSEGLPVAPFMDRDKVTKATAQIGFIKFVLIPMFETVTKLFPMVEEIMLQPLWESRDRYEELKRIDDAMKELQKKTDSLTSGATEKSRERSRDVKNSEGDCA

IC50: 1 to 10 µM
SMILES: CCCc1nn(C)c2c(=O)[nH]c(-c3cc(S(=O)(=O)N4CCN(C)CC4)ccc3OCC)nc12 [Sildenafil, reference compound]
